Source: paper PMC9170845, “Development of a multi faceted platform containing a tetrazine, fluorophore and chelator: synthesis, characterization, radiolabeling, and immuno-SPECT imaging” (EJNMMI Radiopharmacy and Chemistry, 2022)

Tested on: SKOV-3 (human HER2-positive) tumor bearing mice
Details: mouse, in vivo, iv, 144 h

Which “Uptake in SKOV-3 tumor” value does the source give for “[^111In]In-DO3A-BODIPY-Tz-TCO-trastuzumab” here?
Its value is 21.24 ± 5.56 %ID/g.

What about the Uptake in blood of the same substance?
The Uptake in blood was 4.15 ± 0.92 %ID/g.

What about the Uptake in bone of the same substance?
The Uptake in bone was 1.33 ± 0.31 %ID/g.

What about the Uptake in ovaries of the same substance?
The Uptake in ovaries was 17.20 ± 11.24 %ID/g.

What about the Uptake in uterus of the same substance?
Its Uptake in uterus is 4.94 ± 3.37 %ID/g.
